Laboratory results reported in PMC11678766, “Identification of Novel Inhibitors of Starch Excess 4 (SEX4)” (Life, 2024).

Target: T1, SEX4 (Arabidopsis thaliana, UniProt Q9FEB5)
T1 construct: gift from Dr. Gentry's group, University of Kentucky College of Medicine
T1 sequence (Q9FEB5 90-379 limits assumed): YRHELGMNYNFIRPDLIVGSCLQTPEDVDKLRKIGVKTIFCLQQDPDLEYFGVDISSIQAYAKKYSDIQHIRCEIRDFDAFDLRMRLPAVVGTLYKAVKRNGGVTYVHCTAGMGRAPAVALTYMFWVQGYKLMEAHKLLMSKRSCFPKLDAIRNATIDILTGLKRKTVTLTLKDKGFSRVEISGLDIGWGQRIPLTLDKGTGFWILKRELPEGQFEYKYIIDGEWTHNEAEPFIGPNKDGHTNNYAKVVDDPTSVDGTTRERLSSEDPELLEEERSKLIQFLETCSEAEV
Experiment: Phosphatase assay against amylopectin, SEX4
Assay type: biochemical
Details: comparison of IC50 values for SEX4 and LSF2
Protocol: The Arabidopsis thaliana SEX4 lacking the first 89 amino acids (Δ89-SEX4) and LSF2 proteins were kindly provided by Dr. Gentry’s group at the University of Kentucky College of Medicine (Lexington, KY, USA). para-nitrophenyl phosphate disodium salt hexahydrate (pNPP), Malachite green oxalate salt, ammonium molybdate tetrahydrate, and amylopectin from potato starch were purchased from Sigma-Aldrich. Absorbance was measured on a Beckman Coulter (Brea, CA, USA) DU 700 Series UV/Vis Spectrophotometer.
The phosphatase activity of SEX4 or LSF2 toward amylopectin in the absence or presence of an inhibitor was measured in a reaction mixture with 2 μg SEX4 or LSF2 at 37 °C in 20 μL volume. […] The release of free inorganic phosphate was determined by measuring the absorbance at 620 nm and the K2HPO4 standard curve.
The steady-state kinetic parameters were determined by varying substrate concentrations (pNPP 0.5–50 mM; amylopectin 5–45 μg) with or without an inhibitor. […] Inhibition constants (Ki) and inhibition types were determined by varying substrate concentrations in the absence of an inhibitor and in the presence of an inhibitor at the IC50 concentration. […]
The IC50 values were calculated directly from regression curves using GraphPad PRISM software. […]

CCCCCC/C=C\CCCCCCCc1cccc(O)c1C(=O)O [Compound F05, Ginkgolic acid]
Selectivity between SEX4 and LSF2: selective for SEX4
